# In patent publication US9884052B2, “Compounds and methods to treat organophosphorus poisoning” (dated 2018):
# Molecular target: "aged" hAChE (recombinant human acetylcholinesterase inhibited by Sarin analog 7-(isopropyl methylphosphonyl)-4-methylumbelliferone) (Homo sapiens, UniProt P22303)
# Assay: Resurrection assay: reactivation of "aged" hAChE by Compound 100 (Ellman ATCh hydrolysis after 2-PAM)
# Conditions: for vi (AChEaged): pH 7.3, 27° C., then 30 minute 100 μM 2-PAM, initial rate of ATCh hydrolysis; for % AChEreact: percent of "aged" hAChE reactivated by 2-PAM relative to AChEfree; for % AChERes.: percent of resurrected hAChE (Equation 3)
# [1] = 1.77 mM Compound 100, incubation 1.00 hours
# [2] = 1.77 mM Compound 100, incubation 4.00 hours
# [3] = 1.77 mM Compound 100, incubation 12.00 hours
# [4] = 1.77 mM Compound 100, incubation 24.00 hours
# [5] = 1.77 mM Compound 100, incubation 48.00 hours
structure (smiles),measurement,setting,value
COc1cccc(C=NO)[n+]1C,vi (AChEaged),[1],11.05 (±1.3) mA/min
same,% AChEreact,[1],2.45 (±0.7) %
same,% AChERes.,[1],1.28 (±0.8) %
same,vi (AChEaged),[2],16.66 (±1.0) mA/min
same,% AChEreact,[2],5.67 (±0.6) %
same,% AChERes.,[2],4.50 (±0.6) %
same,vi (AChEaged),[3],20.56 (±0.1) mA/min
same,% AChEreact,[3],6.46 (±1.1) %
same,% AChERes.,[3],5.30 (±1.1) %
same,vi (AChEaged),[4],21.90 (±1.5) mA/min
same,% AChEreact,[4],8.70 (±1.3) %
same,% AChERes.,[4],8.7 (±1.3) %
same,vi (AChEaged),[5],21.75 (±1.3) mA/min
same,% AChEreact,[5],7.03 (±0.8) %
same,% AChERes.,[5],7.03 (±0.8) %
